The list shows a part of the results, in another mix than the full data. Inconclusive results are not listed. The source made the active and inactive calls. The calls were made as follows: active = hit-call score of the fitted dose curve at least 0.9, where 1 is the maximum; inconclusive = response in the unintended direction; inactive = score below 0.9.
Assay: CCTE_Mundy_HCI_iCellGABA_NOG_NeuriteLength: CCTE's Neurite Outgrowth Assay in iCellGABA cells for Neurite Length, Mundy Lab
Procedure: CCTE_Mundy_HCI_iCellGABA_NOG is a multiplexed, cell-based-readout assay that uses iCell GABANeurons from FUJIFILM Cellular Dynamics, Inc. (FCDI), human GABAergic enriched neurons derived from induced pluripotent stem (iPS) cells, with measurements taken at 50.33 hours after chemical dosing in a microplate: 96-well plate.CCTE_Mundy_HCI_iCellGABA_NOG_NeuriteLength is one of four components of the CCTE_Mundy_HCI_iCellGABA_NOG assay. It measures neurite outgrowth related to neurite length using High Content Imaging of fluorescently labelled markers.Data from the assay component CCTE_Mundy_HCI_iCellGABA_NOG_NeuriteLength was analyzed at the endpoint CCTE_Mundy_HCI_iCellGABA_NOG_NeuriteLength in the positive analysis fitting direction relative to DMSO as the negative control and baseline of activity. Using a type of morphology reporter, loss-of-signal activity can be used to understand developmental effects.
Exposure starts 2 hours post-plating by adding 10 ul of the working solution to 90 ul of media in the wells for a 1/10 dilution. […] A Cellomics ArrayScan VTi HCS Reader is used for automated image acquisition and analysis of neurite outgrowth.

**Q.** With CC(C)OP(=S)(OC(C)C)SCCNS(=O)(=O)c1ccccc1 as the compound, how does the AC50 read?
**A.** active: 32.5 µM

— PubChem BioAssay AID2284382 (EPA ToxCast)
